Earlier results in patent US20180214582A1, “METHOD FOR DIAGNOSING CARCINOMAS USING IRGD AND MAGENTIC RESONANCE TOMOGRAPHY (MRT)” (Albrecht Piiper, priority 2015, published 2018).

Key:
[1] = test system: HCCs in the livers with HCC; settings: injection of nanoparticles; Waralee Watcharin, 2015, FIG. 4; cited from earlier work
macrophages = settings: Waralee Watcharin, 2015, FIG. 7; cited from earlier work

For “Gd-DTPA-containing human serum albumin (HSA) nanoparticles: Prior-art contrast agent: Gd-DTPA-containing human serum albumin nanoparticles (Watcharin 2015)”, the “contrasting of the HCCs in the livers with HCC in MRI” value [1] is given as “negative contrasting” and the absorption by macrophages (macrophages) is given as “absorbed very rapidly by the macrophages”.
